Measured values: patent US11058780B2, “Palpable marker composition” (TECHNICAL UNIVERSITY OF DENMARK, priority 2016, dated 2021)

Experiment: Solubility in ethanol and doping of iodo-SAIB into SAIB
Type: physicochemical

- solubility in ethanol: highly soluble
Substance: sucrose acetate isobutyrate [SAIB]
